Active and inactive are the calls of the source. The rule behind the calls is not given here.
Target: Bcl-2-like protein 1 (Homo sapiens) (UniProt Q07817)
Experiment: Inhibition of Bcl-xL at 200 uM by 1D 1H NMR binding assay

The chains behind the UniProt entries cited, without tags or fusion partners.
UniProt Q07817, whole entry: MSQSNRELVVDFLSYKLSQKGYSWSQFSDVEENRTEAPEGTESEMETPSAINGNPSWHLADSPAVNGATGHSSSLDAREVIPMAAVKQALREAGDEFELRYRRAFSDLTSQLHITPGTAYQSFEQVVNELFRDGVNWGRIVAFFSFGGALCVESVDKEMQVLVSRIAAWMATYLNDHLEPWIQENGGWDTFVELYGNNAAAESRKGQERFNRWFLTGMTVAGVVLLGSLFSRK

Row | SMILES | Activity
1 | Cc1cc2c(C(C)C)c(O)c(O)cc2c(O)c1-c1c(C)cc2c(C(C)C)c(O)c(O)cc2c1O [APOGOSSYPOL] | Active
2 | CCc1ccc(CCNC(=O)c2c(O)c(O)cc3c(O)c(-c4c(C)cc5c(C(=O)NCCc6ccc(CC)cc6)c(O)c(O)cc5c4O)c(C)cc23)cc1 | Active

From ChEMBL document CHEMBL1158469 (J Med Chem, 2009)
